Results on one compound are retold here after patent US9260484B2, “Small molecule composite surfaces as inhibitors of protein-protein interactions” (Ohio State Innovation Foundation, priority 2011, dated 2016).

Protein sequences, listed by entry. Tags and fused reporters are not part of them.
UniProt P62942, whole entry: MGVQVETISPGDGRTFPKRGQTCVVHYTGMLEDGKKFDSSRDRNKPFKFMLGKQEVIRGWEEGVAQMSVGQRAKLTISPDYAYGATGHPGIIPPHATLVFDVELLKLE

This assay has as its target T1, FKBP (Homo sapiens, UniProt P62942).
T1 construct: 200 nM recombinant FKBP
Briefly: fluorescence polarization (FA) competition assay for binding to FKBP. The method, then: To facilitate solid-phase synthesis, an invariant glutamine was added to the C-terminal side of the R^1 residue, for the purpose of backbone peptide cyclization and providing an anchor for attachment to the solid support. For this set of compounds, the dipeptide Ala-Ala was used as the effector domain. The rapalogs were tested for binding to FKBP by a fluorescence polarization competition assay^22,23. SLF^24, was labeled with the fluorescent dye fluorescein^23. Binding of the labeled ligand to FKBP increases its fluorescence anisotropy (FA) values. Addition of an unlabeled ligand to the reaction inhibits the binding of SLF to FKBP and therefore decreases the FA values. […] Subsequently, the IC50 values were converted into KI values based on the Cheng-Prusoff equation.
A previously reported synthetic ligand of FKBP^46 (SLF in FIG. 2), was labeled with the fluorescent dye fluorescein^20. Binding of the labeled ligand to FKBP increases its fluorescence anisotropy (FA) value.
The fluorescence polarization based competition assay was performed in a 384-well plate. […] After the addition of the rapalogs as the last component, the binding reactions were incubated for 1 h at room temperature to reach binding equilibrium. Anisotropy values were measured on a FlexStation 3 plate reader (Molecular Devices, Sunnyvale, Calif.).
In general terms: In fluorescence polarisation assays a small probe gives low polarisation when free and higher when bound to something large.

Take `C[C@@H]1NC(=O)[C@H](C)NC(=O)[C@H](C)NC(=O)[C@H](CCC(N)=O)NC(=O)C[C@@H](CCc2ccccc2)NC(=O)[C@@H]2CCCCN2C(=O)C(=O)C(C)(C)COC(=O)[C@@H](C)NC(=O)[C@H](C)NC1=O` [Compound 2x]: the affinity, expressed as Ki, was 150 ± 30 nM.

Broadly, the Ki is a measure of affinity in units of concentration, obtained from inhibition or displacement. Read a high Ki as lower affinity.
